Test results from patent US9730984B2, “Composition for preventing or treating rheumatoid arthritis” (GemVax & KAEL Co., Ltd., priority 2012, dated 2017).

How the values were obtained:
[1] = test system: HeLa cells; experiment: Toxicity test within HeLa cells (cell viability and toxicity analysis); assay type: cell-based; conditions: general statement; test in HeLa cells with 20 μM (FIG. 10)
Protocol: HeLa cell line was purchased from ATCC, The HeLa cell line was maintained in MEM supplemented with 10% fetal bovine serum (Invitrogen, USA), Earle's salts, non-essential amino acids, sodium pyruvate, 100 ug/ml penicillin and 100 units/ml streptomycin, and then incubated at 37° C., 5% CO2.
The cells were seeded into 96-well plates and added to each well for medium supplemented with 10% fetal bovine serum (Invitrogen, USA), 100 ug/ml penicillin and 100 units/ml streptomycin. The cells were cultured in 37° C., 5% CO2 for 12 h incubator. After incubated, plates washed by PBS, and added MEM (Minimum essential medium) for starvation during 1 h. The 20 μM of PEP 1 with 100 μL of the aqueous solution were added to each well, and then the cells were incubated at 37° C. for 24. After incubated, the cell viability and toxicity were evaluated using an MIT assay.

[2] = test system: CIA (collagen induced arthritis) mouse; experiment: Second experiment: CIA (collagen induced arthritis) animal model, 0.2-5 nM peptide treatment; assay type: in vivo
From the text: (§1) Establishing CIA (Collagen Induced Arthritis) Animal Model
(§2) In order to find effectiveness of the peptide according to the present invention to rheumatoid arthritis (RA), CIA (collagen induced arthritis) mouse were used to confirmation.
(§3) Non-patent document disclosed in the present invention describes about CIA animal model in detail. In reference to this, the present embodiment established the CIA animal model as follows.
(§4) In the first and second experiment mentioned below, lyophilized and formed in powder PEP1 according to the Example 1 was dissolved in 0.9% saline solution and was used. After doing amendment of the purity (purity; 97.3%, content: 85.3%) of PEP1, the solution for injection was made in each concentration with 0.9% saline solution as an additive just before an administration. Every dose was administered by the solution in an amount of 100 μL.
Like the first experiment, the first inducement was done to 38 mice at day 1 by using 5-week mice, the mice were divided into the group consisting of 32 mice administered by a peptide composition before CIA inducement (8 mice of 0.2 nM, 100 μl (i.e. around 0.04 ng); 8 mice of 1 nM, 100 μl (around 0.2 ng dose); 8 mice of 2 nM, 100 μl (i.e. around 0.4 ng); 8 mice of 5 nM, 100 μl (i.e. around ing)) and the PBS treatment group consisting of 6 mice.
The second inducement was done at day 21, and the treatment was done by intradermal injection in each suitable concentration to each group at day 23, 25 and 27 (see FIG. 2).
(§5) The assessment of rheumatoid arthritis index was done at from the day of second inducement to the day 42 per every two days and the joint and serum was collected after sacrificing all mice at day 42.
(§6) The rheumatoid arthritis index is distinguished by the point from 0 to 4, and the point given to one mouse could be from 0 to max 16 (see Table 2).
(§7) For the assessment of rheumatoid arthritis, the index having point 0˜16 per a mouse was measured and the points are shown by the averages thereof.

[3] = test system: CIA (collagen induced arthritis) mouse; experiment: First experiment: CIA (collagen induced arthritis) animal model, preventive and therapeutic peptide treatment; assay type: in vivo; conditions: for rheumatoid arthritis index: FIG. 5, 6
From the text: as §1, §2, §3, §4
The first induction was done to 38 mice at day 1 by using 5-weeks male DBA/1J mouse (Orient Bio Inc., Korea), and the mice were divided into the preventive group consisting of 16 mice administered by a peptide composition before CIA inducement (i.e. 8 mice of 1 nM, 100 μl (around 0.2 ng dose) and 8 mice 10 nM, 100 μl (around 2 ng dose)), the therapeutic group consisting of 16 mice administered by a peptide composition after CIA inducement (i.e. 8 mice of 1 nM, 100 μl and 8 mice of 10 nM, 100 μl), and the PBS treatment group consisting of 6 mice.
To the preventive group, the treatment was done by intradermal injection in each suitable concentration at day 2, 4, 6, 21, 23, 25, 35, 37 and 39. At day 19, the second inducement was done to 38 mice, and to the therapeutic group the treatment by intradermal injection in each suitable concentration at day 21, 23, 25, 35, 37 and 30 from day 21 (see FIG. 1).
as §5, §6, §7

CC[C@H](C)[C@H](NC(=O)[C@H](Cc1ccccc1)NC(=O)[C@H](CCCNC(=N)N)NC(=O)[C@H](CC(C)C)NC(=O)[C@H](CCCNC(=N)N)NC(=O)[C@H](CO)NC(=O)[C@@H](NC(=O)[C@H](CC(C)C)NC(=O)[C@H](CC(C)C)NC(=O)[C@H](C)NC(=O)[C@@H]1CCCN1C(=O)[C@H](CCCNC(=N)N)NC(=O)[C@H](C)NC(=O)[C@@H](N)CCC(=O)O)[C@@H](C)O)C(=O)N1CCC[C@H]1C(=O)N[C@@H](CCCCN)C(=O)O [PEP1]
toxicity within a cell [1]: low toxicity within a cell
rheumatoid arthritis index, low-concentration treatment ([2]; 0.2 nM, 1 nM, FIG. 8 lower graph): more effectively appearing result of a low-concentration (0.2 nM, 1 nM) peptide treatment
change of weight, low-concentration treatment ([2]; 0.2 nM, 1 nM, FIG. 9 lower graph): more effectively appearing result of a low-concentration (0.2 nM, 1 nM) peptide treatment
survival during the administration ([2]; 0.2, 1, 2 or 5 nM, 100 μl, intradermal injection): all mice were survived
body weight ([2]; low-level peptide treatment group vs CIA control group, FIG. 9): increased body weight was confirmed
rheumatoid arthritis index ([2]; peptide treatment group of each concentration (0.2, 1, 2, 5 nM) vs CIA control group, FIG. 8): appeared to decrease the arthritis index in whole period
histopathological profile (erosion and permeation by edema and inflammation) ([3]; 10 nM peptide and 1 nM peptide treated group (Tx) vs CIA control group, FIG. 4): such damages of the cells were decreased
survival during the administration ([3]; first experiment, 1 nM or 10 nM, 100 μl, intradermal injection): all mice were survived
rheumatoid arthritis index ([3]; first experiment, preventive group (pre-1 nM and pre-10 nM)): effective to decreasing rheumatoid arthritis until day 36 but after then the effectiveness vanished
body weight ([3]; first experiment, preventive group and therapeutic group vs CIA control group, FIG. 7): increased body weights compared to the CIA control group
rheumatoid arthritis index ([3]; first experiment, therapeutic group (thera-1 nM and thera-10 nM)): showed the decreasing arthritis effect in whole period
rheumatoid arthritis index, comparison of concentrations ([3]; first experiment, therapeutic group, 10 nM vs 1 nM): the 10 nM group showed the more effect than the 1 nM group
effectiveness, comparison of concentrations (summary of first and second experiments) ([3]; summary of first and second experiments): the administration of 1 nM peptide was more effective than the 1 nM peptide having lower level
change of the body weight ([3]; summary, therapeutic group of the 1 nM peptide treatment vs other groups): decreased body weight in the therapeutic group of the 1 nM peptide treatment is lower than any other group
inhibition of rheumatoid arthritis, therapeutic group vs preventive group ([3]; summary, therapeutic group treated after second inducement): more effective to inhibit rheumatoid arthritis than the preventive group
